Reference: article PMC4593394 (ACS chemical biology, 2015)

Tested on: HEK293 cells expressing p97-C522A
Assay: Cytotoxicity
Format: cell-based
Details: HEK293, MTT assay, eight-point dose response

`CC1=C(CO)C(=O)O[C@@H]([C@@H](C)[C@H]2CC[C@H]3[C@@H]4C[C@H]5O[C@]56[C@@H](O)C=CC(=O)[C@]6(C)[C@H]4CC[C@]23C)C1` [Compound 1, withaferin A] was tested, and the “shift of cytotoxicity IC50 when p97-C522A is expressed versus wt-p97” value was “no statistically significant rescue”.
